From patent publication US8470841B2, “Heterocyclic compounds, processes for their preparation, medicaments comprising these compounds, and the use thereof” (Sanofi, priority 2008, dated 2013)
Like-named read-outs stand apart in the source and are kept apart here.

Amino acid sequences for entries named in this document (tags omitted). Residues count along the entry.
UniProt O00763, 151-2458: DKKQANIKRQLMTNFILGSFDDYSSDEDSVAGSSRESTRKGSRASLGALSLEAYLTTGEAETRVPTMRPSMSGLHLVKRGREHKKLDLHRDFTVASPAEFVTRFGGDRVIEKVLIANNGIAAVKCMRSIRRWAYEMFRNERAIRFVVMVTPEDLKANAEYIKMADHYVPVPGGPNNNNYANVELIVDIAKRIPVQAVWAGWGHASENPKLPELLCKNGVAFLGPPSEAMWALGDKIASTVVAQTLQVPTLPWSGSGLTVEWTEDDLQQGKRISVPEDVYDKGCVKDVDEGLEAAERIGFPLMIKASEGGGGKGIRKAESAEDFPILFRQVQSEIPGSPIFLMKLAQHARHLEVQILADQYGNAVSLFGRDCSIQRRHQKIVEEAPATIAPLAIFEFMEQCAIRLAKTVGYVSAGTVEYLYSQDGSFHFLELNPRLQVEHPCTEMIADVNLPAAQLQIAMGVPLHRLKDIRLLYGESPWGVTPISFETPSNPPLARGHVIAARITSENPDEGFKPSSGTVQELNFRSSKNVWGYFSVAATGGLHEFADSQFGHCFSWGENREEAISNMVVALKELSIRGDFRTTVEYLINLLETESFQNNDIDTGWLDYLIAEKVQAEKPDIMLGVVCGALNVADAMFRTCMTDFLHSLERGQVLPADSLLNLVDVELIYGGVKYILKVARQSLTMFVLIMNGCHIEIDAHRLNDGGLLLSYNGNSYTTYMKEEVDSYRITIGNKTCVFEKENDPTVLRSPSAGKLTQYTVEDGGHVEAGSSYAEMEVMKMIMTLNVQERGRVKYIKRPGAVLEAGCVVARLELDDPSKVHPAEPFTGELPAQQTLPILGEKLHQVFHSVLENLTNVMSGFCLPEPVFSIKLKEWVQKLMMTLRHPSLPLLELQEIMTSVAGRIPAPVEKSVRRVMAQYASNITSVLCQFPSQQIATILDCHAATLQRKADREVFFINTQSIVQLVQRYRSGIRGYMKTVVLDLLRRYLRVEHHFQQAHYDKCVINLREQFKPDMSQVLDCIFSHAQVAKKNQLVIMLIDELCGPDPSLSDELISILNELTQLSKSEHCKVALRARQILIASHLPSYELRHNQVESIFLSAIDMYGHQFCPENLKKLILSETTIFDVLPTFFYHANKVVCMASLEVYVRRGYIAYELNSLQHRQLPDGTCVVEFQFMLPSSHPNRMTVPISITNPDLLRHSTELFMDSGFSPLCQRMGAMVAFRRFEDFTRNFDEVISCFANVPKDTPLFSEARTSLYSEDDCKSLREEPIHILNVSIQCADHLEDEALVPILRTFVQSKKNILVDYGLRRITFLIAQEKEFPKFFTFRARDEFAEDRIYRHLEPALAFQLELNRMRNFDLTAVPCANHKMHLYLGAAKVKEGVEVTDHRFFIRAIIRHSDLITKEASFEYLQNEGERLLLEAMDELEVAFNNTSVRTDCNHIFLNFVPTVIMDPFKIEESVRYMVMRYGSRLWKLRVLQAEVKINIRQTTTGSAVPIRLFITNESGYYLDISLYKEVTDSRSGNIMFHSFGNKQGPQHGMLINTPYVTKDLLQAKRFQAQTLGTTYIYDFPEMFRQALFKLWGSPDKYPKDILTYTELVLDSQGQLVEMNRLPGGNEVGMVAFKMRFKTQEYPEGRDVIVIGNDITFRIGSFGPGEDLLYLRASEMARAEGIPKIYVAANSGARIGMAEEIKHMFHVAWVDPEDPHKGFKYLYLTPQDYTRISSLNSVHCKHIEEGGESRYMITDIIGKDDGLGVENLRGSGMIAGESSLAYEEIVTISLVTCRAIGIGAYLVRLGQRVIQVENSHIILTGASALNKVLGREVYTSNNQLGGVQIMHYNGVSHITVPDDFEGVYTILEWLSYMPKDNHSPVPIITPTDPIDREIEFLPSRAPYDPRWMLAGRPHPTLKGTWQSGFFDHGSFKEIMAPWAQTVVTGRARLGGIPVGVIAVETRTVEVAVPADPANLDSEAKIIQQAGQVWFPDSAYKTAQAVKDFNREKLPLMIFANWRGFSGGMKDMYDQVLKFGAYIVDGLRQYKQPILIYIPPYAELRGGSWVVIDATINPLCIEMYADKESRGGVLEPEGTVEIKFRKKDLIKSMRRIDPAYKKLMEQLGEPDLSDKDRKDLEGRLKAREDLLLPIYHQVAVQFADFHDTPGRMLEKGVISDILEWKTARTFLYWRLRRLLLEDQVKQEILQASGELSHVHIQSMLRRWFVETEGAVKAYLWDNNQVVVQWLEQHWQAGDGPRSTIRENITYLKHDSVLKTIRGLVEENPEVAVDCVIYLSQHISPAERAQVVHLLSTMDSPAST

Experiments:
[1] = molecular target: human ACC2 (Homo sapiens (Human), UniProt O00763); format: biochemical
[2] = molecular target: rACC1 (Rattus norvegicus (Rat), UniProt P11497); assay: Enzymatic assay of ACC inhibitors, rat ACC1; format: biochemical

Row | SMILES | IC50 ([1]; human ACC2, read-out: IC50 (hACC2)) [nM] | IC50 [1] [nM] | IC50 [2] [nM]
1 | CC(=O)NC(C)CCc1ccc(Oc2ccc(OC(C)C)cn2)cc1 (stereo not drawn) [Example 10, N-{3-[4-(5-Isopropoxypyridin-2-yloxy)phenyl]-1-methylpropyl}acetamide] | 150 | – | –
2 | CC(=O)N[C@@H](C)COc1ccc(Oc2ccc(OC(C)C)cc2)cc1 [Example 59, N—{(S)-2-[4-(4-Isopropoxyphenoxy)phenoxy]-1-methylethyl}acetamide, reference compound] | – | 110 | > 10000
